This passage reports fold change (FC) results from ChEMBL document CHEMBL1629485, “Lead identification of conformationally restricted β-lactam type combretastatin analogues: synthesis, antiproliferative activity and tubulin targeting effects” (Eur J Med Chem, 2010).

SMILES strings stand for the structures.

For the assay, the species on record is Bos taurus. Description: Inhibition of bovine tubulin polymerization at 10 uM measured every 30 seconds for 60 mins by spectrophotometry relative to control.
In the case of `COc1ccc(C2CC(=O)N2c2cc(OC)c(OC)c(OC)c2)cc1O` (stereo not drawn), the fold change (FC) came to 10.2.

Consider `COc1ccc(/C=C\c2cc(OC)c(OC)c(OC)c2)cc1O` [COMBRETASTATIN A4], for which the fold change (FC) amounted to 6.

As to `COc1cc(OC)c(C2CC(=O)N2c2cc(OC)c(OC)c(OC)c2)cc1OC` (stereo not drawn), the fold change (FC) worked out at 1.2.
